ChEMBL document CHEMBL3616465, “Neutrophil elastase inhibitors for the treatment of (cardio)pulmonary diseases: Into clinical testing with pre-adaptive pharmacophores” (Bioorg Med Chem Lett, 2015)

Tests used:
[1] = Selectivity ratio of Ki for rat neutrophil elastase to Ki for human neutrophil elastase
[2] = Selectivity ratio of Ki for mouse neutrophil elastase to Ki for human neutrophil elastase
[3] = species on record: Homo sapiens; test: Selectivity ratio of IC50 for CatG (unknown origin) to Ki for human neutrophil elastase
[4] = species on record: Homo sapiens; test: Selectivity ratio of IC50 for trypsin (unknown origin) to Ki for human neutrophil elastase
[5] = species on record: Homo sapiens; test: Selectivity ratio of IC50 for chymotrypsin (unknown origin) to Ki for human neutrophil elastase
[6] = Selectivity ratio of IC50 for porcine pancreatic elastase to Ki for human neutrophil elastase

Ratio Ki [1]: 100
Ratio Ki [2]: 75
Selectivity ratio [3]: > 375000
Selectivity ratio [4]: > 375000
Selectivity ratio [5]: > 375000
Selectivity ratio [6]: > 375000
Compound: CC1=C(C#N)[C@@H](c2ccc(C#N)cc2S(C)(=O)=O)N(C)C(=O)N1c1cccc(C(F)(F)F)c1
